In one series the target is Cytochrome P450 2D6 (Homo sapiens, UniProt P10635).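 Further: CYP2D6 member of a cytochrome P450 panel assay.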
A further series addresses Cytochrome P450 3A4 (Homo sapiens, UniProt P08684).

By UniProt entry, the sequences of proteins in these tests, tags left out.
UniProt P10635, whole entry: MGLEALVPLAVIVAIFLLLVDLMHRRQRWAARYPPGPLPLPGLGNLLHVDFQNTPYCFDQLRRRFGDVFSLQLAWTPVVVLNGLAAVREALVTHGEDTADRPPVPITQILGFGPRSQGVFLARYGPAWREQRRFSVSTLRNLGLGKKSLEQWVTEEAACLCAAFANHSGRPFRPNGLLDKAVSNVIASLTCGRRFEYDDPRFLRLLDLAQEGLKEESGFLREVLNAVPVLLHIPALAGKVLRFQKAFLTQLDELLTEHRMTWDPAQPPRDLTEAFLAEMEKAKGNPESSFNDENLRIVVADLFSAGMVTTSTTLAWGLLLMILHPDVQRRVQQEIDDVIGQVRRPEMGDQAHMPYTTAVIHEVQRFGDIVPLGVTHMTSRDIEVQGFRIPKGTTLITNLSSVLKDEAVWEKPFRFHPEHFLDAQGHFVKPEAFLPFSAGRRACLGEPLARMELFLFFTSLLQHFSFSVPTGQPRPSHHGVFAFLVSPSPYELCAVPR
UniProt P08684, whole entry: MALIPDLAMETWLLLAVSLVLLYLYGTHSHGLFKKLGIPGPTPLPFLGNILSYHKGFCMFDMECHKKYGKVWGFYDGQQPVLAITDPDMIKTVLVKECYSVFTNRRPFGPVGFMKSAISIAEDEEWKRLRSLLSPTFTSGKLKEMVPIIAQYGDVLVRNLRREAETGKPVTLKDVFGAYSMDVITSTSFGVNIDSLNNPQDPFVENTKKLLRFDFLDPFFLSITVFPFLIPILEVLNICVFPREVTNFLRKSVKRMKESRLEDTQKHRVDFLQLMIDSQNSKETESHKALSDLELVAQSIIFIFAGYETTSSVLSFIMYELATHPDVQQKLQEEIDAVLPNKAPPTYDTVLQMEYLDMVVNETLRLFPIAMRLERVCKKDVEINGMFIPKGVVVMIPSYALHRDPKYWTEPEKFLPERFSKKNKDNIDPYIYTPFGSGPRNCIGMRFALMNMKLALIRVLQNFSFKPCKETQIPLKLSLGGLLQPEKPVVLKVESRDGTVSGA

Structures are written as SMILES.

The term AC50 denotes the concentration at which the activity in the assay is half-maximal. Turning to `C#CCOC(=O)C1=CCCN(C)C1` [ARECAIDINE PROPARGYL ESTER], the results for the AC50 on Cytochrome P450 2D6 and at Cytochrome P450 3A4 were inconclusive: 31.6 µM and “inactive”, respectively.

Values taken from ChEMBL document CHEMBL1201862, “PubChem BioAssay data set” (2004).
